{"sequences": {"note": "Amino acid sequences for entries named in this document (tags omitted). Residues count along the entry.", "UniProt P78536, 215-824 limits assumed": "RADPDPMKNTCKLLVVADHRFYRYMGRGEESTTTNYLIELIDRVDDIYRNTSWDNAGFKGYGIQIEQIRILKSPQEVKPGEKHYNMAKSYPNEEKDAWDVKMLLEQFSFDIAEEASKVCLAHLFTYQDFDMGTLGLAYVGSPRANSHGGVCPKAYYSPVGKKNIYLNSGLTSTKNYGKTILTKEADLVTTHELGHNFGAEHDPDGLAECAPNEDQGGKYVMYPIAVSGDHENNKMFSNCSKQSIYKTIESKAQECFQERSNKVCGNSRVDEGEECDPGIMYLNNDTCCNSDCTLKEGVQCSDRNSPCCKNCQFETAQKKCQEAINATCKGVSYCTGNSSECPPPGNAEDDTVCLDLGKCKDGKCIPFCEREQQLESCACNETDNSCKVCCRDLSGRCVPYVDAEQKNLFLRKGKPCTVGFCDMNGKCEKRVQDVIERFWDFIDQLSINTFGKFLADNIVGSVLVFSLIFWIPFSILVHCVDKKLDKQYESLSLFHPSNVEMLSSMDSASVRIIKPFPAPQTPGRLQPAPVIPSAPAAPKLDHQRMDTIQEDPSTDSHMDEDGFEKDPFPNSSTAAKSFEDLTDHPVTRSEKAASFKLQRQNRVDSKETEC"}, "source": "patent US9365529B2", "about": "“Benzenesulfonamide compounds, method for synthesizing same, and use thereof in medicine as well as in cosmetics” (GALDERMA RESEARCH & DEVELOPMENT, priority 2009, dated 2016)", "target": "TACE enzyme (Homo sapiens, UniProt P78536)", "assay": "Enzymatic assay for TACE inhibition", "assay_type": "biochemical", "details": "Example 28 table", "note": "pIC50: −log10 of the molar value.", "data": [{"smiles": "CC#CCOc1ccc(S(=O)(=O)CNCC(C(=O)NO)N2CCN(S(C)(=O)=O)CC2)cc1", "note": "(stereo not shown) [Example 1, 3-[(4-but-2-ynyloxybenzenesulfonyl)methylamino]-N-hydroxy-2-(4-methanesulfonylpiperazin-1-yl)propionamide]", "values": [{"measurement": "pIC50", "value": 7.06}]}]}
